Assay results: patent US9878999B2, “Proteasome chymotrypsin-like inhibition using PI-1833 analogs” (H. Lee Moffitt Cancer Center and Research Institute, Inc., priority 2011, dated 2018)

Target: CT-L activity of purified 20S proteasome (Homo sapiens, UniProt P20618+P28074)
Experiment: in vitro CT-L activity of purified 20S proteasome
Assay type: biochemical
Details: read-out: IC50 (μM) Chymotrypsin-like activity; Table 4

Row | IC50 [µM] | Compound
1 | 0.38 | CC(C)N(Cc1nc(-c2ccccc2)no1)C(=O)COc1ccc(C(F)(F)F)cc1
2 | 1.04 | Cc1ccc(-c2noc(CN(C(=O)COc3ccc(Cl)cc3)C(C)C)n2)cc1
